# Earlier results as cited in patent publication US11679984B2, “Composite sols” (Prebona AB, priority 2016, dated 2023).
# Settings: 20° C.; cited from earlier work
substance,measurement,value
Co(OH)2,Aqueous solubility,34 µM
